## Ab-14 light chain CDR variants: yeast mating affinities

Target: peptide PDVDLGDISGINAS, taken from heptad repeat 2 (HR2) of SARS-CoV-2 spike.

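Phage display of a naive human antibody library on the peptide gave the parent. Designed CDR sequences, proposed from the first random library and measured here. Several design methods are mixed in this list. The assay is AlphaSeq: two haploid yeast populations carry antibody and antigen on their surface. Binding brings cells together so that they mate, and sequencing counts the barcode pairs among the diploids. Read counts were normalised to the haploid input and turned into Kd by a linear fit to BCL2-family pairs of known affinity, for each replicate. Mating was done six times.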

Parent scFv Ab-14: VH joined to VL by three GGGGS repeats. Changes lie in the light chain CDRs alone.
VH: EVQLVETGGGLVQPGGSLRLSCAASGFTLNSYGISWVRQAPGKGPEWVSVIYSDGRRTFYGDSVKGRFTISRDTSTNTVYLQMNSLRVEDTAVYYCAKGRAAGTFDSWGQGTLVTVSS
VL: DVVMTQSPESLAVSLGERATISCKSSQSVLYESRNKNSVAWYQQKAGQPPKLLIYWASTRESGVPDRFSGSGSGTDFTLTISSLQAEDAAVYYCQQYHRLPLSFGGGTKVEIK

Variants are written as CDR1, CDR2 and CDR3 of the light chain (limits as in the source). Parent: KSSQSVLYESRNKNSVA, WASTRES, QQYHRLPLS.
Each Kd is an estimate from the mating assay, the geometric mean of the replicates in which the pair was seen; lower is stronger.
"nd" means that the variant was in the library but no mating with the target was seen in any replicate; the authors take this as a sign of poor binding, and no number exists.
Three control strains display no target. For all light chain designs, 4% of the pairings with them gave a signal, with a median of 430 nM and one signal in twenty below 38 nM, so weak values seen in few replicates may be background.
The parent sequence was in this pool as ten entries: three were never detected, three once, and four in most replicates, with averages from 2.2 nM to 240 nM.
Values of this round are not directly comparable with the first-round values of the same sequences.
The authors' rule: three or more of the six replicates give a measured affinity, fewer mean a poor binder.

| CDR-L1 | CDR-L2 | CDR-L3 | Kd (apparent) | detected |
|---|---|---|---|---|
| KVRQSELYESRNKNSVA | WASTRES | QQYHRLPLS | 7.9 nM | 6 of 6 |
| KISQSVLMESLNKNSVA | HASTRCD | QQYHRLPLS | 1.2 nM | 6 of 6 |
| KSSQSSLYESRNKNSVA | SASTRES | QQYHRLHLE | 2.9 nM | 6 of 6 |
| KLQQSWLYESRNKNNVA | NASTRES | QQYHRLPLS | 310 pM | 6 of 6 |
| KVSPSQLYWSRNKNAVA | QANTRET | QQYHRLPLS | 2.1 nM | 6 of 6 |
| KFSQSVLYESWNKNHVA | WASTRES | QQYHRLPLS | 2.7 nM | 6 of 6 |
| HLSDSGLYESRNKNSVA | NASTRES | QQYHRLPLN | 1.0 nM | 6 of 6 |
| KHSPSEEYESRDKNSVA | HASTRCS | QQYHRLPLS | 6.9 nM | 6 of 6 |
| ILSDSVLSLSRNKNSVA | DNSTRES | QQYDRLPLS | 120 nM | 6 of 6 |
| KVSQSVPYESRNKNSVA | HASTRES | QQYHRLPLS | 1.2 nM | 6 of 6 |
| KVSQSWLYESRNKNSVA | NASTREQ | QQYHRLPLS | 680 pM | 6 of 6 |
| KIQDNLGTLMKQINSVA | SSEEKSD | QSYFRLPLI | 7.0 nM | 6 of 6 |
| KMSQSTLYESRNDNNVA | WASTLES | QTYHRLPLS | nd | 0 of 6 |
| MVTQMAMTGMKNKRSVA | NAETREN | QQYHHLPLI | 23 nM | 6 of 6 |
| MVNTNLEHQAQRDNNIA | EADMVAA | QDYDRLPLI | 200 nM | 6 of 6 |
| MLTWDDDHETSRQNSIA | DAHERNT | QQYHQLPLI | 1.0 nM | 6 of 6 |
| KLSFSCLYESRMPNSVA | NASTRYS | QQYHRLPLS | 1.6 nM | 6 of 6 |
| KLGQMTATESRNLNSVA | QMDTRES | QQYHRLPLS | 77 nM | 5 of 6 |
| KLSQSMLYESRNKNSVA | NASKRES | QQYHRLPLS | 630 pM | 6 of 6 |
| MVNSIMDHLSKQTNNVA | ETVTREE | QQYDRLPLS | 14 nM | 6 of 6 |
| HISQSVGMTSFNKNSVA | ENSTREA | QQYDRLPLS | 100 nM | 5 of 6 |
| KSSQSDLYESRNGNSVA | DASTRMD | QQYHRLPLS | 700 pM | 6 of 6 |

Further variants, results first:

| Kd (apparent) | detected | CDR-L1 | CDR-L2 | CDR-L3 |
|---|---|---|---|---|
| 12 nM | 6 of 6 | KLRQSTKYESRNQNSVA | WASTRMS | QQYHRLPLS |
| 7.7 nM | 6 of 6 | KLQWSNLYWSRNKNSVA | QASTRMM | QQYHRLPLS |
| 44 nM | 6 of 6 | SLGLVTMLEYAGRNNVA | NNSTRES | QQYDRLPLS |
| 1.7 nM | 6 of 6 | KAQQSELYGERNSNSVA | EASLRES | QQYHRLPLS |
| 800 pM | 6 of 6 | KLGDMVHTESRNKNSIA | DMRNRES | QQYYRLPLS |
| 1.1 nM | 6 of 6 | KLSQSVLYQMEMKNSVA | QASTRMS | QQYHRLPLS |
| 1.1 nM | 6 of 6 | KLTSITGTEKVTGQNVA | EMETREN | QQYNRLPLS |
| 1.2 nM | 6 of 6 | KSSQSQLYESRNKNSVA | NASTRED | QQYHRLPLS |
| 640 pM | 6 of 6 | KLSQSQLYESRVKNSVA | NASTRES | QQYHRLPLS |
| 24 nM | 6 of 6 | KINERLRSGENEQHSIA | NATEIVH | QQYHNLPLG |
| 1.2 nM | 6 of 6 | KWEQSVMGESRNKNSVA | NASTRES | QQYHRLPLS |
| 22 nM | 4 of 6 | KFSQWTFSQNRDDNSIA | HADEVVR | QQYDRFPLT |
| 7.4 nM | 6 of 6 | ASSQGWLYEGRNKNSVA | GASTRED | QQYHRLPLS |
| 3.1 nM | 6 of 6 | KASQRVLYESRNKNSVA | AASTRVS | QQYHRLPLS |
| 110 nM | 2 of 6 | KDSDSMLYLERNKNSVA | WASTREA | QQYHQLPLS |
| 120 nM | 2 of 6 | KDSQSMLYESTNVNSVA | WASTRES | QQYHRLPLS |
| 1.4 µM | 1 of 6 | MVSQLMLWGMHVKNSIA | EAQTRLN | QQYDRLPLF |
| 130 nM | 6 of 6 | MLLQATMYGERQRNSVA | HASTRED | QQYHRLPLI |
| 110 nM | 6 of 6 | KMSQSVLYESRNKNSVA | WASIRES | QQYHRLPLS |
| nd | 0 of 6 | KSSQAWLYEQRNKNSVA | QASTRES | QQYHRLPLS |
| 87 nM | 1 of 6 | MVSQLMLWGMHAKNSIA | EAEHRCN | QQYDRLPLF |
| 2.4 nM | 6 of 6 | KLSQSELYDSRNKNSVA | NASTRES | QQYHRLPLS |
| 1.6 nM | 6 of 6 | KQSQSVLYESLNKNSVA | DASTRES | QQYHRLPLS |

Extract of 3 entries:

{"CDR-L1": "ASSQGWLYEGRNKNSVA", "CDR-L2": "GASTRED", "CDR-L3": "QQYHRLPLS", "Kd (apparent)": "7.4 nM", "detected": "6 of 6"}
{"CDR-L1": "MVTQMAMTGMKNKRSVA", "CDR-L2": "NAETREN", "CDR-L3": "QQYHHLPLI", "Kd (apparent)": "23 nM", "detected": "6 of 6"}
{"CDR-L1": "KISQSVLMESLNKNSVA", "CDR-L2": "HASTRCD", "CDR-L3": "QQYHRLPLS", "Kd (apparent)": "1.2 nM", "detected": "6 of 6"}

From the AlphaSeq antibody data of Li et al. 2023 (doi:10.1038/s41467-023-39022-2), copy in the FLAb collection.